{
  "source": "paper PMC10256634",
  "about": "“Comparative in vivo toxicokinetics of silver powder, nanosilver and soluble silver compounds after oral administration to rats” (Archives of Toxicology, 2023)",
  "key": {"[1]": {"assay": "Toxicokinetics after 28 days repeated oral gavage dosing, total Ag in whole blood (ICP-MS)", "conditions": "0 to 96 h post-dose"}, "[2]": {"assay": "Toxicokinetics after single oral gavage dose, total Ag in whole blood (ICP-MS)"}, "[3]": {"conditions": "single oral dose 5 mg/kg bw [Ag equivalent 3.25 AgAc, 3.2 AgNO3], male"}, "[4]": {"conditions": "single oral dose 125 [80 Ag] mg/kg bw, female"}, "[5]": {"conditions": "single oral dose 125 [80 Ag] mg/kg bw, male"}},
  "data": [
    {"smiles": "O=[N+]([O-])[O-].[Ag+]", "note": "[AgNO3, silver(I) nitrate]", "values": [
      {"measurement": "DN AUC0-t", "setting": "[1]; 28 d oral 5 mg/kg bw/d [Ag equivalent 3.25 AgAc, 3.2 AgNO3], female", "result": "2240 (ng.h/mL)/(mg/kg bw/d)"},
      {"measurement": "DN AUC0-t", "setting": "[1]; 28 d oral 5 mg/kg bw/d [Ag equivalent 3.25 AgAc, 3.2 AgNO3], male", "result": "1600 (ng.h/mL)/(mg/kg bw/d)"},
      {"measurement": "DN AUC0-t", "setting": "[1]; 28 d oral 125 [80 Ag] mg/kg bw/d, female", "result": "601 (ng.h/mL)/(mg/kg bw/d)"},
      {"measurement": "DN AUC0-t", "setting": "[1]; 28 d oral 125 [80 Ag] mg/kg bw/d, male", "result": "476 (ng.h/mL)/(mg/kg bw/d)"},
      {"measurement": "DN AUC0-t", "setting": "[2]; rat, in vivo, po, 5 mg/kg", "result": "1441 (ng.h/mL)/(mg/kg bw/d)"},
      {"measurement": "DN AUC(0–24)", "setting": "[2]; single oral dose 5 mg/kg bw [Ag equivalent 3.25 AgAc, 3.2 AgNO3], female", "result": "544 (ng.h/mL)/(mg/kg bw/d)"},
      {"measurement": "DN AUC0-t", "setting": "[2]; [3]", "result": "484 (ng.h/mL)/(mg/kg bw/d)"},
      {"measurement": "DN AUC(0–24)", "setting": "[2]; [3]", "result": "311 (ng.h/mL)/(mg/kg bw/d)"},
      {"measurement": "DN AUC0-t", "setting": "[2]; [4]", "result": "234 (ng.h/mL)/(mg/kg bw/d)"},
      {"measurement": "DN AUC(0–24)", "setting": "[2]; [4]", "result": "96 (ng.h/mL)/(mg/kg bw/d)"},
      {"measurement": "DN AUC0-t", "setting": "[2]; [5]", "result": "242 (ng.h/mL)/(mg/kg bw/d)"},
      {"measurement": "DN AUC(0–24)", "setting": "[2]; [5]", "result": "75 (ng.h/mL)/(mg/kg bw/d)"}
    ]}
  ]
}
